Values quoted from earlier work in patent US11980689B2 (AVALYN PHARMA INC., priority 2013, dated 2024).

Test system: ALK fusion gene tumors
Conditions: nausea, vomiting, or diarrhea; cited from earlier work

C[C@@H](Oc1cc(-c2cnn(C3CCNCC3)c2)cnc1N)c1c(Cl)ccc(F)c1Cl [Crizotinib]
patients with at least one side effect: Approximately 50%
